From ChEMBL document CHEMBL5154923 (J Med Chem, 2022)

Molecular target: T1, Serine/threonine-protein kinase 17A (Homo sapiens) (UniProt Q9UEE5)
T1 sequence (whole entry): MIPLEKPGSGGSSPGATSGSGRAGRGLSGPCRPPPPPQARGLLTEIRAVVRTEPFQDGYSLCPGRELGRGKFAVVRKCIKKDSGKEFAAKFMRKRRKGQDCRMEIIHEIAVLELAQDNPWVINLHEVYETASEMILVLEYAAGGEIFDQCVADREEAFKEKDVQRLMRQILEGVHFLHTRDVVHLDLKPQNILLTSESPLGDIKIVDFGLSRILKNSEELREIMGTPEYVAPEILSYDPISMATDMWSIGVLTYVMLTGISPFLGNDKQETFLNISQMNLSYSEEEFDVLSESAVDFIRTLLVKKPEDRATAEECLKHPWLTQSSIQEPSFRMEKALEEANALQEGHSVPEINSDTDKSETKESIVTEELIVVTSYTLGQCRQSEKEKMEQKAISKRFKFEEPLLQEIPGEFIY
Test: Binding affinity to human N-terminal His-tagged/ TEV cleavage fused DRAK1 (39 to 369 residues) expressed in Escherichia coli assessed as change in melting temperature at 10 uM by SYPRO orange dye based DSF assay

Structure (SMILES): CN1CCN(C(=O)c2ccc3cc2OCCOCCNc2ccn4ncc-3c4n2)CC1
- ΔTm: 2.1 °C
